Assays:
[1] = FOSA group: Fosamax 10 mg/kg oral; D: after 1 week of administration
[2] = system: ddY female mice with ovary extraction; assay: Weight of bone of both thighs in ovary-extracted mice; type: in vivo; conditions: (absolute weight of bone/body weight at sacrifice)×100; FOSA group: Fosamax 10 mg/kg oral, 4 weeks
Method: After sacrifice, a weight of bone of both thighs is calculated with g unit. To reduce an error arising from a difference of individual body weight, a weight of bone is calculated with relative weight as following equation. Weight of bone=[(absolute weight of bone/body weight at sacrifice)×100]

For `NCCCC(O)(P(=O)(O)O)P(=O)(O)O` [FOSA, sodium alendronate], the body weight [1] was 34.46 ± 2.76 and the “Relative weight of bone” value [2] was 0.217 ± 0.015.

— patent publication US7671039B2, “Composition containing beta-glucan for prevention and treatment of osteoporosis” (Glucan Corporation, priority 2004, dated 2010)
